Patent US11471537B2, “Oligomer extended insulin-Fc conjugates” (Novo Nordisk A/S, priority 2017, dated 2022)

Assay: PK studies: intravenous and subcutaneous administration to SD rats, insulin-Fc concentrations by immuno-assay
Format: in vivo
Settings: for PK rat sc [T½ (h)] Mean Value: subcutaneous
Procedure: Insulin-Fc conjugates were tested in vivo by intravenous and subcutaneous administration to SD rats. Blood samples were collected and the insulin-Fc concentrations were measured by immuno-assay.

| Substance | PK rat iv [T½ (h)] Mean Value | PK rat sc [T½ (h)] Mean Value |
| --- | --- | --- |
| (A14A, A21G, A22(GQAP)18, A94G, A95Q, A96A, A97K^, A98P, B29R, desB30 human insulin)/(227A, 234A, 235K, 297E, 315Q, 384Q, des447 hIgG4-Fc(228-447))4-[bis[2-[(2-acetyl)amino]ethyl]amino]-4-oxo-butanoyl Conjugate [Example 5.25] | 47.7 h | 44.5 h |
| (A14E, A21G, A22(GQEP)19, A98K^, A99P, B25H, B29R, desB30 human insulin)/(227A, 234A, 235K hIgG4-Fc(228-447))4-[bis[2-[(2-acetyl)amino]ethyl]amino]-4-oxo-butanoyl Conjugate [Example 5.1] | 32.6 h | 39.1 h |
| A14E, A21G, A22(GQAPGQAPGQEP)6-GQAP, A98K^, A99P, B3Q, B25H, B29R, desB30 human insulin/(227A, 234A, 235K hIgG4-Fc(228-447))4-[bis[2-[(2-acetyl)amino]ethyl]amino]-4-oxo-butanoyl Conjugate [Example 5.5] | 44.7 h | 35.7 h |
| A14E, A21G, A22(GQAPGQAPGQEP)6-GQAP, A98K^, A99P, B3Q, B25H, B29R, desB30 human insulin/(227A, 234A, 235K, 297E, 315Q, 384Q, des447 hIgG4-Fc(228-447))4-[bis[2-[(2-acetyl)amino]ethyl]carbamoylamino]butanoyl Conjugate [Example 5.24] | 50.6 h | 51.9 h |
| A14E, A21G, A22(GQAPGQAPGQEP)6-GQAP, A98K^, A99P, B3Q, B25H, B29R, desB30 human insulin/(227A, 234A, 235K, 297E, 315Q, 3840, des447 hIgG4-Fc(228-447))4-[bis[2-[(2-acetyl)amino]ethyl]amino]-4-oxo-butanoyl Conjugate [Example 5.13] | 53.3 h | 43.4 h |
| A14E, A21G, A22(GQAPGQEP)6, A70K^, A71P, B25H, B29R, desB30 human insulin/(227A, 234A, 235K hIgG4-Fc(228-447))4-[bis[2-[(2-acetyl)amino]ethyl]amino]-4-oxo-butanoyl Conjugate [Example 5.9] | 36.3 h | 31.7 h |
| A14E, A21G, A22(GQEP)6, A46K^, A47P, B25H, B29R, desB30 human insulin/(227A, 234A, 235K hIgG4-Fc(228-447))4-[bis[2-[(2-acetyl)amino]ethyl]amino]-4-oxo-butanoyl Conjugate [Example 5.7] | 36.5 h | 32.3 h |
| A14E, A21G, A22(GQEP)12, A70K^, A71P, B25H, B29R, desB30 human insulin/(227A, 234A, 235K hIgG4-Fc(228-447))4-[bis[2-[(2-acetyl)amino]ethyl]amino]-4-oxo-butanoyl Conjugate [Example 5.8] | 36.3 h | 36.6 h |
| A14E, A21G, A22(GQEP)19, A98K^, A99P, B3Q, B25H, B29R, desB30 human insulin/(227A, 234A, 235K hIgG4-Fc(228-447))4-[bis[2-[(2-acetyl)amino]ethyl]amino]-4-oxo-butanoyl Conjugate [Example 5.6] | 31.1 h | 30.1 h |
| A14E, A21G, A22(GQEP)19, A98K^, A99P, B3Q, B25H, B29R, desB30 human insulin/(227A, 234A, 235K, 297E, 315Q, 384Q, des447 hIgG4-Fc(228-447))4-[bis[2-[(2-acetyl)amino]ethyl]amino]-4-oxo-butanoyl Conjugate [Example 5.2] | 42.8 h | 44.0 h |
| A14E, A21Q, A22(G)18, A40K^, B25H, B29R, desB30 human insulin/(227A, 234A, 235K hIgG4-Fc(228-447))4-[bis[2-[(2-acetyl)amino]ethyl]amino]-4-oxo-butanoyl Conjugate [Example 5.21] | 43.2 h | 38.8 h |
